{"source": "paper PMC10328330", "about": "(PLOS ONE, 2023)", "data": [{"tested_on": "T. gondii tachyzoites (RH strain, clone 2F1)", "type": "cell-based, Toxoplasma gondii", "values": [{"compound": "COc1cc(NC(=O)Nc2cccc(CNC(=O)O[C@H]3CCOC3)c2)ccc1-c1cnco1", "note": "[Compound 24, Merimepodib]", "Selectivity Index (SI)": 34}, {"compound": "O=C(O)c1ccc2c(c1)nc(Nc1cccc(Cl)c1)c1ccncc12", "note": "[Compound 22, Silmitasertib]", "Selectivity Index (SI)": 44}, {"compound": "CNC(=O)c1cc(Oc2ccc(NC(=O)Nc3ccc(Cl)c(C(F)(F)F)c3)cc2)ccn1", "note": "[Compound 9, Sorafenib]", "Selectivity Index (SI)": 19}, {"compound": "CCc1nc(N)nc(N)c1-c1ccc(Cl)cc1", "note": "[Compound 30, Pyrimetamine]", "Selectivity Index (SI)": ">135"}]}]}
